Data taken from ChEMBL document CHEMBL4359905, “Discovery, structural insight, and bioactivities of BY27 as a selective inhibitor of the second bromodomains of BET proteins” (Eur J Med Chem, 2019).

The chains behind the UniProt entries cited, without tags or fusion partners.
UniProt P25440, whole entry: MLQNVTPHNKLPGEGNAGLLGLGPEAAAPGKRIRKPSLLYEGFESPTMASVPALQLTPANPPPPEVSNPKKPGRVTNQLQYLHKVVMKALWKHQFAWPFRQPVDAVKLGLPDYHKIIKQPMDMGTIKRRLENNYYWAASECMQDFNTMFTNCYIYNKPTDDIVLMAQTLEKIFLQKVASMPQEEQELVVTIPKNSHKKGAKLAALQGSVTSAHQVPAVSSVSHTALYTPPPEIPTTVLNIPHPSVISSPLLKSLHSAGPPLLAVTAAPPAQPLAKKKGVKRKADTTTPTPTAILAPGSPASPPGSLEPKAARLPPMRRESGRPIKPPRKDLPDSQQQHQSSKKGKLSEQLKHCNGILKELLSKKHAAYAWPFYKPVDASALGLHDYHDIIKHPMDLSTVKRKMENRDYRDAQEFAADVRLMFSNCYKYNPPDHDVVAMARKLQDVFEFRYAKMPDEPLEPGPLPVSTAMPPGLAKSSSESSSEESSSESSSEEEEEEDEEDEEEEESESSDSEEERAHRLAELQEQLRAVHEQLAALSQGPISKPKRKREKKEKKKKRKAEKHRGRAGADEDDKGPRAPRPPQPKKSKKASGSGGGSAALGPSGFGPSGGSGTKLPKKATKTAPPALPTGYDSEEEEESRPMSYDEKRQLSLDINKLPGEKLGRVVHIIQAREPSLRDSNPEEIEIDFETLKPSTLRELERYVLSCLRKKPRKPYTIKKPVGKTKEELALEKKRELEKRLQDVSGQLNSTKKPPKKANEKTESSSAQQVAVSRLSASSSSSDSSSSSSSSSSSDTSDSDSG

Molecular target: Bromodomain-containing protein 2 (Homo sapiens, UniProt P25440)
Experiment: Binding affinity to human recombinant BRD2 BD1 (72 to 205 residues) by fluorescence polarization assay

With `Cc1sc2c(c1C)C(c1ccc(Cl)cc1)=N[C@@H](CC(=O)Nc1ccc(O)cc1)c1nnc(C)n1-2` [BIRABRESIB] the Ki was 0.0332 µM.
